Chains of the proteins cited; added tags and fusions are not shown.
UniProt P21453, whole entry: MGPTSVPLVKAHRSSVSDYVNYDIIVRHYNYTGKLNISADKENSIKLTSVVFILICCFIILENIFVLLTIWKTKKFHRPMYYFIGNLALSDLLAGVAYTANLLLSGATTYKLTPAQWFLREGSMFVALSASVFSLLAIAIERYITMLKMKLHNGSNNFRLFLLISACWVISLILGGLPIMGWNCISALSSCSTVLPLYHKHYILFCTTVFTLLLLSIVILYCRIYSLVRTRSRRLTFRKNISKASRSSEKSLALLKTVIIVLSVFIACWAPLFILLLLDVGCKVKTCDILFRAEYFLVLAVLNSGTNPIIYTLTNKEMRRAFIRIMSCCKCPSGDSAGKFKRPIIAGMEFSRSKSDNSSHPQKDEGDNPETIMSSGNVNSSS

In patent US20230398099A1, “METHODS OF TREATING CONDITIONS RELATED TO THE S1P1 RECEPTOR” (Arena Pharmaceuticals, Inc., priority 2020, published 2023):

How the values were obtained:
[1] = target: hS1P1 (Homo sapiens, UniProt P21453); assay: S1P1 GTPgS binding assay; format: biochemical; settings: % relative to S1P
[2] = target: hS1PR1 (Homo sapiens, UniProt P21453); assay: b-arrestin recruitment assay; format: cell-based; settings: % relative to S1P

## CCCCCCCCc1ccc(CC[C@](N)(CO)COP(=O)(O)O)cc1 [Fingolimod(P)]
[1]
  Emax: 90%
[2]
  Emax: 123%
